# Results from PubChem BioAssay AID588676 (Johns Hopkins Ion Channel Center, 2011).
# Protein sequences, listed by entry. Tags and fused reporters are not part of them.
# UniProt Q96LB2, whole entry: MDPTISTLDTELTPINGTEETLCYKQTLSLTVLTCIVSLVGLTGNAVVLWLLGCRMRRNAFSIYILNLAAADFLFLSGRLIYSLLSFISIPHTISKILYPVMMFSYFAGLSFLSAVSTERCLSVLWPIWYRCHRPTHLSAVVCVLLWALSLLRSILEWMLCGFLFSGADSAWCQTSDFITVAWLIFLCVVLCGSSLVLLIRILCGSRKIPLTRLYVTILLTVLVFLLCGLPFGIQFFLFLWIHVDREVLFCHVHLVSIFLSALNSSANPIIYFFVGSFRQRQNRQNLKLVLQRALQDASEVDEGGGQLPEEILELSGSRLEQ
# This is a selection; strong and weak results do not stand in their true shares. The source made the active and inactive calls.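 The calls were made as follows: active = calcium-response B-score plate-corrected more than 3 library SD below zero, starting fluorescence within 5 deviations, no agonist response on first addition; inactive = the rest.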
# Target: Mas-related G-protein coupled receptor member X1 (Homo sapiens) (UniProt Q96LB2)
# Assay: blockade of BAM8-22-evoked MrgX1 calcium response – HEK293 cells, Fluo-4 calcium flux, primary screen (AID 588676)
# Details: Fluo-4, BAM8-22 antagonism, at 10 µM
row,Structure (SMILES),outcome
1,CCN(CC)CCCOC(=O)C(O)(c1ccccc1)c1ccccc1,inactive
2,Cc1cc(=O)[nH]c(N[N+](=O)[O-])n1,inactive
3,O=C(OC1CN2CCC1CC2)C12CC3CC(CC(C3)C1)C2 (centres undefined),inactive
4,Cc1c2c(nc3ccccc13)SC(C(Cl)Cl)C2 (centres undefined),inactive
5,COc1cc(I)ccc1[As](=O)(O)O,inactive
6,COc1ccc2nc(NP(=O)(c3ccccc3)c3ccccc3)sc2c1,inactive
7,COc1ccc(N/C(=N/P(=O)(N2CCOCC2)N2CCOCC2)N2CCOCC2)cc1,inactive
8,O=[As](O)(c1ccc(O)cc1)c1ccccc1O,inactive
9,C[As](=O)(O)c1cccc(C(=O)O)c1,inactive
10,O=[N+]([O-])c1cc([N+](=O)[O-])c(Nc2cccnc2)c([N+](=O)[O-])c1,inactive
11,O=[N+]([O-])c1ccc2c(c1)C=Nc1ccccc1O2,inactive
12,Cc1ccc2nc3c(c(C)c2c1)CC(C(Cl)Cl)S3 (centres undefined),inactive
13,Cc1cccc(C)c1OP(C)(N)=O (centres undefined),inactive
14,Cc1ccc(OP(=O)(Nc2ccc([N+](=O)[O-])cn2)Oc2ccc(C)cc2)cc1,inactive
15,CC(C)(C)c1ccc(OP(C)(=O)Nc2ccc(SC(F)(F)F)cc2)cc1 (centres undefined),inactive
16,CC(C)c1ccc(OP(=O)(Nc2ccccn2)Oc2ccccc2F)cc1 (centres undefined),inactive
17,Cc1ccc(NP(C)(=O)Oc2ccccc2)c(C)c1 (centres undefined),inactive

row,Structure (SMILES),outcome
1,COc1ccccc1OP(C)(=O)Nc1ccc(C)cc1 (centres undefined),inactive
2,ClCCSc1nnc(-c2cccnc2)o1,inactive
3,CCOC(=O)c1ccc(NP(C)(=O)Oc2ccccc2)cc1 (centres undefined),inactive
4,Cc1cc(C)cc(OP(C)(N)=O)c1 (centres undefined),inactive
5,COc1ccc(OP(C)(=O)Nc2cccc(F)c2)cc1 (centres undefined),inactive
6,O=[N+]([O-])c1cc([N+](=O)[O-])c(-c2ccn[nH]2)s1,inactive
7,CC(C)NC(=O)NP(=O)(Oc1ccccc1)Oc1ccccc1,inactive
8,COc1ccccc1OP(C)(=O)Nc1cc(Cl)ccc1C (centres undefined),inactive
9,CCN(CC)C(=S)SC(NC=O)C(Cl)(Cl)Cl (centres undefined),inactive
10,CCOC(=O)Nc1ccc([As](=O)(O)O)c(O)c1,inactive
11,Cc1cc(SC(NC(=O)c2ccccc2)C(Cl)(Cl)Cl)nc(C(C)C)n1 (centres undefined),inactive
12,CCOC(=O)Nc1cccc([As](=O)(O)O)c1,inactive
13,CP(=S)(Nn1cnnc1)Oc1ccccc1 (centres undefined),inactive
14,O=[N+]([O-])c1ccc(Nc2ccc(Oc3ccc([N+](=O)[O-])cc3[N+](=O)[O-])cc2)c([N+](=O)[O-])c1,inactive
15,CP(=O)(Nc1ccccc1Br)Oc1ccccc1 (centres undefined),inactive
16,COc1ccccc1OP(C)(=O)Nc1ccccc1 (centres undefined),inactive
17,Cc1cc(SC(NC=O)C(Cl)(Cl)Cl)ncn1 (centres undefined),inactive
